The chains behind the UniProt entries cited, without tags or fusion partners. Residues count along the entry.
UniProt Q6P988, 81-451 C330S limits assumed: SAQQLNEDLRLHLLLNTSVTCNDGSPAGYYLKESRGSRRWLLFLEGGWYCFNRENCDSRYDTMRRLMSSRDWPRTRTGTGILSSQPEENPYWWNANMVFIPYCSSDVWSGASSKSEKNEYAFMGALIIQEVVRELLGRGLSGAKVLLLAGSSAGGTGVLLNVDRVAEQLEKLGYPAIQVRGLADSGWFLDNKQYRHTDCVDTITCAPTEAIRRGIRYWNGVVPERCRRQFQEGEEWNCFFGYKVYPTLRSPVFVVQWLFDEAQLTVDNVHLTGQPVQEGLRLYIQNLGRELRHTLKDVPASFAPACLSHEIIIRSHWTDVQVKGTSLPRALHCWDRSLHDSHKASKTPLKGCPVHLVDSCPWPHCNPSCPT

In PMC6961116, “Scaffold-hopping identifies furano[2,3-d]pyrimidine amides as potent Notum inhibitors” (Bioorganic & Medicinal Chemistry Letters, 2020):

Target: Notum(81–451 Cys330Ser) (Homo sapiens, UniProt Q6P988, C330S)
Experiment: Notum biochemical OPTS assay (carboxylesterase activity)
Conditions: read-out: Notum IC50; OPTS substrate, 1 h incubation; geometric mean ± s.d.

Row | IC50 | Compound
1 | 62 nM | Cc1sc2ncnc(SCC(=O)N3CC4(CC(=O)N(C)C4)C3)c2c1Cl
2 | 3.2 nM | Cc1sc2ncnc(SCC(=O)N3Cc4cn[nH]c4C3)c2c1Cl
3 | 33 nM | CC(=O)N1CCN(C(=O)CSc2ncnc3sc(C)c(Cl)c23)CC1
4 | 44 nM | Cc1sc2ncnc(SCC(=O)N3CCN(C(C)C)C(=O)C3)c2c1Cl
5 | 15 nM | Cc1sc2ncnc(SCC(=O)N3CCN(CC(F)(F)F)C(=O)C3)c2c1Cl
6 | 2.7 nM | Cc1sc2ncnc(SCC(=O)N3CC(C#N)C3)c2c1Cl
7 | 20 nM | Cc1sc2ncnc(SCC(=O)N3CCc4ncccc4C3)c2c1Cl
8 | 1900 nM | Cc1sc2ncnc(SCC(=O)N3CCOCC3(C)C)c2c1Cl
9 | 290 nM | Cc1sc2ncnc(SCC(=O)N3CCN4C(=O)CCC4C3)c2c1Cl (stereo not drawn)
10 | 22 nM | Cc1sc2ncnc(SCC(=O)N3CCOC[C@H]3C)c2c1Cl
11 | 7.8 nM | Cc1sc2ncnc(SCC(=O)N3CCc4[nH]cnc4C3)c2c1Cl
12 | 17 nM | Cc1sc2ncnc(SCC(=O)N3CC4(CNC(=O)C4)C3)c2c1Cl
13 | 18 nM | Cc1sc2ncnc(SCC(=O)N3CC4COCC4C3)c2c1Cl (stereo not drawn)
14 | 88 nM | Cc1sc2ncnc(SCC(=O)N3CC4(CCOCC4)C3)c2c1Cl
15 | 35 nM | Cc1sc2ncnc(SCC(=O)N3CCn4c(nnc4C(C)C)C3)c2c1Cl
16 | 1.7 nM | Cc1sc2ncnc(SCC(=O)N3CC(F)(F)C3)c2c1Cl
17 | 26 nM | Cc1sc2ncnc(SCC(=O)N3CCCNC(=O)C3)c2c1Cl
18 | 106 nM | Cc1sc2ncnc(SCC(=O)N3CCN(C)CC3)c2c1Cl
19 | 61 nM | Cc1sc2ncnc(SCC(=O)N3CN(C)C(=O)C3C)c2c1Cl (stereo not drawn)
20 | 25 nM | Cc1sc2ncnc(SCC(=O)N3CCOC[C@@H]3C)c2c1Cl
21 | 21 nM | Cc1sc2ncnc(SCC(=O)N3CCc4nocc4C3)c2c1Cl
22 | 33 nM | Cc1sc2ncnc(SCC(=O)N3CCNC(=O)CC3)c2c1Cl
23 | 24 nM | Cc1sc2ncnc(SCC(=O)N3CCn4nc(C(F)F)nc4C3)c2c1Cl
24 | 24 nM | Cc1sc2ncnc(SCC(=O)N3CC4CC(C3)O4)c2c1Cl
25 | 20 nM | Cc1sc2ncnc(SCC(=O)N3CC4(COC4)C3)c2c1Cl

Test system: MDCK-MDR1 monolayer
Experiment: not given
Conditions: not given

Row | efflux ratio | Compound
26 | 24 | Cc1sc2ncnc(SCC(=O)N3CC4(CC(=O)N(C)C4)C3)c2c1Cl
27 | 2.6 | Cc1sc2ncnc(SCC(=O)N3CCN(CC(F)(F)F)C(=O)C3)c2c1Cl
28 | 65 | Cc1sc2ncnc(SCC(=O)N3CC4(CNC(=O)C4)C3)c2c1Cl
29 | 88 | Cc1sc2ncnc(SCC(=O)N3CCn4c(nnc4C(C)C)C3)c2c1Cl
30 | 13 | Cc1sc2ncnc(SCC(=O)N3CCn4nc(C(F)F)nc4C3)c2c1Cl
